This note sets out measurements from publication PMC4942610, “Exploration of acetanilide derivatives of 1-(ω-phenoxyalkyl)uracils as novel inhibitors of Hepatitis C Virus replication” (Scientific Reports, 2016).

Assay [1] deals with NS5B RNA-dependent RNA polymerase (RdRp), 2a (isolate JFH1) (Hepatitis C virus genotype 2a, UniProt Q99IB8). The assay can be described thus: Recombinant NS5B RNA-dependent RNA polymerase activity, genotype 2a.
The target of assay [2] is NS3 helicase/NTPase (Con1 isolate of genotype 1b) (Hepatitis C virus genotype 1b, UniProt Q9WMX2). The assay can be described thus: Recombinant NS3 helicase/NTPase activity. Conditions: 50 µM.
Assay [3] addresses NS5B RNA-dependent RNA polymerase (RdRp), 1b (isolate Con1) (Hepatitis C virus genotype 1b, UniProt Q9WMX2). The assay can be described thus: Recombinant NS5B RNA-dependent RNA polymerase activity, genotype 1b. Conditions: 50 µM.

Regarding `O=C(Cn1c(=O)ccn(CCCCCOc2ccc(Br)cc2)c1=O)Nc1ccc(Oc2ccc(Cl)cc2)cc1` [Z385], in assay [1], the “inhibition of NS5B RdRp activity (primer-dependent and de novo), genotype 2a” value (“inhibition of NS5B RdRp activity … genotype 2a” for short) is on record as “none of the compounds tested exhibited any notable inhibitory activity”. Moreover, in assay [2], the “inhibition of NS3 NTPase activity” value is on record as “none of the compounds tested exhibited any notable inhibitory activity” and the “inhibition of NS3 helicase activity” value is recorded as “none of the compounds tested exhibited any notable inhibitory activity”. Moreover, the “inhibition of NS5B RdRp activity (primer-dependent and de novo), genotype 1b” value (shortened to “inhibition of NS5B RdRp activity … genotype 1b”) in assay [3] is “none of the compounds tested exhibited any notable inhibitory activity”.
As to `O=C(Cn1c(=O)ccn(CCCCCCOc2ccc(Br)cc2)c1=O)Nc1ccc(Oc2ccccc2)cc1` [Z400], the “inhibition of NS5B RdRp activity … genotype 2a” value in assay [1] is “none of the compounds tested exhibited any notable inhibitory activity”. In addition, in assay [2], the “inhibition of NS3 NTPase activity” value is “none of the compounds tested exhibited any notable inhibitory activity” and the “inhibition of NS3 helicase activity” value is on record as “none of the compounds tested exhibited any notable inhibitory activity”. For the same compound, the “inhibition of NS5B RdRp activity … genotype 1b” value in assay [3] is listed as “none of the compounds tested exhibited any notable inhibitory activity”.
Turning to `O=C(Cn1c(=O)ccn(CCCCCCCCOc2ccc(Br)cc2)c1=O)Nc1ccc(Oc2ccccc2)cc1` [Z401], the “inhibition of NS5B RdRp activity … genotype 2a” value in assay [1] is reported as “none of the compounds tested exhibited any notable inhibitory activity”. Also, in assay [2], the “inhibition of NS3 NTPase activity” value is on record as “none of the compounds tested exhibited any notable inhibitory activity” and the “inhibition of NS3 helicase activity” value is “none of the compounds tested exhibited any notable inhibitory activity”. In addition, the “inhibition of NS5B RdRp activity … genotype 1b” value in assay [3] is “none of the compounds tested exhibited any notable inhibitory activity”.
